Assays:
ALS = settings: cited from earlier work

## Nc1nc2ccc(OC(F)(F)F)cc2s1 [riluzole, 6-(trifluoromethoxy)benzothiazol-2-amine]
SOD1-G93A mice; riluzole alone
  survival compared to control mice: did not extend survival
SOD1-G93A mice; treatment from 100 days of age
  survival: 159.7 ± 1.9 days
ALS; ALS patients
  prolongation of survival: several months
ALS
  patients with liver damage: about 10%

Reference: US11369596B2, “Methods of treating a neurodegenerative disease in a mammal in need thereof” (Thomas Jefferson University, priority 2013, dated 2022)
